In patent US7232837B2, “Stereoisomers with high affinity for adrenergic receptors” (McNeil-PPC, Inc., priority 1999, dated 2007):

Molecular target: T1, α1 adrenergic receptors
T1 construct: Kd; other: Saturation Analysis, canine lung membranes; Kd; other: Scatchard Analysis, canine lung membranes; Alpha-1 IC50; Alpha-1 Ki; other: 3H-prazocin, canine lung membranes; other: as stated in text; other: tex
Assay type: binding, canine (mongrel dogs)
Settings: canine lung membranes; for Ki: 3H-prazocin, read-out: Alpha-1 Ki; for IC50: inhibition of specific 3H-prazocin binding, read-out: Alpha-1 IC50

Row | SMILES | Ki [µM] | IC50 [µM]
1 | CNC[C@@H](O)c1cccc(O)c1 [(+)-Phenylephrine, (+)-phenylephrine] | 68 | 178
2 | CNC[C@H](O)c1cccc(O)c1 [(−)-Phenylephrine, (−)-phenylephrine] | 3 | 7
